{
  "source": "patent US20190328665A1",
  "about": "“LIPOSOME COMPOSITIONS ENCAPSULATING MODIFIED CYCLODEXTRIN COMPLEXES AND USES THEREOF” (priority 2014, published 2019)",
  "assay_type": "in vivo",
  "conditions": "oral gavage 200 mg/kg",
  "data": [
    {"compound": "O=C(NOC[C@H](O)CO)c1ccc(F)c(F)c1Nc1ccc(I)cc1F", "note": "[PD-0325901]", "values": [
      {"measurement": "acute toxicity / survival", "value": "always died within 24 hours"}
    ]}
  ]
}
